Lamin A splicing = LMNA splicing modulation. AID 1487. HeLa LMNA splicing GFP/RFP minigene ratio, 48 h. 200,000 compounds, 0.01% hits. Potency, µM (titrated, usually from 46.1 µM), inactives show at the top dose ratio change, negative = inhibition, hits mostly inhibitors; active means well fitted inhibition curve with a large enough effect in the signal ratio, with a control signal flat, not every such curve was filed as active; inconclusive means small, poorly fitted or top-dose-only effect, or effect the other way, or a change in a side signal; the % refers to the signal ratio; further: potency means the concentration at half of the fitted maximal effect; on the % scale 0 is the no-effect control and ±100 the full control effect
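S3 HeLa cells stably expressing lamin A-EGFP splicing minigene plus DsRed2, 600 cells/well, 48 h compound exposure at 37C. Laser-scanning cytometry; analysed as GFP (500-530 nm)/RFP (575-640 nm) total intensity ratio; 0.5% DMSO vehicle.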
JMJD2E inh = JMJD2E (human) inhibition. JMJD2E catalytic domain, FDH-coupled NADH fluorescence (FDH is formaldehyde dehydrogenase). Potency, µM (series often up to 57.1 µM), inactives show at the top dose activity change, negative = inhibition, usual class: inhibitors. 230,000 compounds, 1.6% hits. AID 2147; active means well fitted inhibition curve with a large enough effect, not every such curve was filed as active; inconclusive means small, poorly fitted or top-dose-only effect, or another doubt; inactive means no such curve, though single readings can be large or run the other way;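 further: potency means the concentration at half of the fitted maximal effect; 0% = wells with enzyme and -100% = buffer wells without enzyme; nearly all actives have a fitted effect of over 50% in size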
ALDH1A1 block = inhibitors of human aldehyde dehydrogenase 1A1; Purified ALDH1A1, NADH fluorescence, propionaldehyde substrate; P00352; 220,000 compounds, 7.3% hits; Potency, µM (top dose mostly 75.3 µM), for inactives: top-dose activity, negative = inhibition, hits mostly inhibitors; active means well fitted inhibition curve with a large enough effect, not every such curve was filed as active; inconclusive means small, poorly fitted or top-dose-only effect, or another doubt; inactive means no such curve, though single readings can be large or run the other way;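 further: potency means the concentration at half of the fitted maximal effect; plate controls were no enzyme wells and a reference inhibitor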
miR-21 reporter = raises the signal of a miR-21 reporter | HeLa miR-21 FLuc reporter, luciferase, 48 h | Potency, µM (highest dose often 38.3 µM), for inactives: at the highest dose reporter change, positive = more light | 340,000 tested, under 10 active | AID 2288; active = well fitted rising curve with a large enough effect; inconclusive = small, poorly fitted or top-dose-only effect; inactive = no such curve, though single readings can be large or run the other way;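 also: % of control where 0% means no effect; miR-21 action dims this reporter so a rising signal means less miR-21 action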
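HeLa cells endogenously expressing miR-21, stably carrying CMV-driven firefly luciferase with a downstream miR-21 binding site, 2000 cells/well. Titrations up to approximately 40 uM, 48 hours; luciferase luminescence read.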
Sfp inh = inhibitors of Bacillus subtilis Sfp phosphopantetheinyl transferase. Q9F4F7. Biochemical Sfp PPTase activity, qHTS. Potency, µM, inactives show max response, negative = inhibition, most hits filed as inhibitors. 3.5% of 310,000 active. AID 1490; active = well fitted inhibition curve with a large enough effect; inconclusive = small, poorly fitted or top-dose-only effect, or another doubt; inactive = no such curve, though single readings can be large or run the other way;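 also: the enzyme is Sfp with the accession as filed and its product quenches rhodamine fluorescence; potency is read from the fitted curve at half-maximal effect; 0% = enzyme reaction without inhibitor and -100% = no enzyme wells; top concentration of the series not given in the record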
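Buffer: 50 mM Hepes-Na pH 7.6, 10 mM MgCl2, 0.01% Nonidet P-40, 0.01% BSA. Enzyme 15 nM, pre-exposed to compound 15 min; substrates then added and fluorescence change tracked over 30 min.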
G9a inh = G9a (human) methyltransferase inhibition | Q96KQ7 | G9a H3K9 monomethylation, AlphaScreen, 2 h | Potency, µM (titrated, usually from 102 µM), for the others: top-dose activity, negative = inhibition, most hits filed as inhibitors | 350,000 compounds, 8.8% hits | AID 504332; further: potency means the concentration at half of the fitted maximal effect; on the % scale 0 is the no-effect control and ±100 the full control effect; nearly all actives have a fitted effect of over 75% in size
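Chemiluminescent proximity detection of H3K9 monomethylation, read after 10 min bead incubation in the dark. Reaction: 20 nM G9a, 500 nM biotin-H3K9 peptide, 20 uM SAM cofactor, 2 h, room temperature, following 15 min enzyme-compound preincubation.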
Active calls of the source: *; ? = inconclusive; . = not tested or not shown; [ ] = remark or other dose. A selection: hits, their analogues and other compounds. The true share with any hit is near 13%. Unless noted, the call rests on the fitted dose curve; in most records, active means well fitted curve in the direction sought with a large enough effect; inconclusive means small, poorly fitted or top-dose-only effect, or another doubt; inactive means no such curve, though single readings can be large; an effect the other way counts as inactive or inconclusive.

compound	Lamin A splicing	ALDH1A1 block	JMJD2E inh	G9a inh	Sfp inh	miR-21 reporter
CCn1c(=O)c(=O)n(CC)c2cc(S(=O)(=O)Nc3cccc(OC)c3)ccc21	15%	13µM*	4%	14%	2%	-3%
O=C(NNC(=S)NC(=O)c1cccs1)c1ccc(NC(=O)c2ccccc2)cc1	?	?	?	2%[59 µM]	16%	10%
O=C(NNC(=S)NC(=O)c1cccs1)c1cccnc1	-12%[46 µM]	?	1%	45µM*	0%	0%
O=C(N/N=C(\CC(=O)c1cccs1)C(F)(F)F)c1cccnc1	.	20µM*	?	-5%	19%	-5%
O=C(NC(O)C(=O)c1cccs1)c1cccnc1 (stereo not drawn)	0%	10µM*	-3%	?	5%	1%
O=C(NNC(=O)c1cccs1)c1cccnc1	.	.	.	-7%[59 µM]	28%	-3%
O=C(NNC(=S)NC(=O)c1cccs1)c1ccc(O)cc1	.	.	.	40µM*	13%	-20%
CC[C@H](C)[C@H](NC(=O)[C@H](Cc1ccc(O)cc1)NC(=O)[C@@H]1CCCN1C(=O)[C@H](CCCN=C(N)N)NC(=O)[C@H](CCCN=C(N)N)NC(=O)[C@@H]1CCCN1C(=O)[C@H](CCCCN)NC(=O)[C@H](CC(N)=O)NC(=O)[C@H](CCC(N)=O)NC(=O)[C@H](Cc1ccc(O)cc1)NC(=O)[C@H](CC(C)C)NC(=O)[C@@H]1CCC(=O)N1)C(=O)N[C@@H](CC(C)C)C(=O)O	.	.	.	.	15%	.
Cc1ccccc1C1NC(=S)NC2=C1C(=O)CCC2 (stereo not drawn)	-20%[46 µM]	22µM*	-13%	-24%	11%	2%
O=C1NC2=C(C(=O)CCC2)C(c2ccccc2Cl)N1 (stereo not drawn)	.	.	.	17%	4%	1%
O=Cc1ccc(OC(=O)C2CC(=O)N(c3ccc(F)cc3)C2)cc1 (stereo not drawn)	8%	?	3%	50µM*	6%	3%
COC(=O)c1ccc(OC(=O)C2CC(=O)N(c3cccc(C)c3)C2)cc1 (stereo not drawn)	11%	18µM*	0%	?	1%	-9%
COc1cccc(N2CC(C(=O)Oc3ccc4ccccc4c3)CC2=O)c1 (stereo not drawn)	4%	-1%	0%	4%	-5%	-5%
CCOC(=O)c1ccc(NC(=O)c2ccc(CN3C(=O)CCn4nc(C)cc43)cc2)cc1	.	.	.	-3%[59 µM]	.	-9%
CCOc1ccc(N=C(/C(C(=O)C(=O)N2CCOCC2)=C(\O)c2ccccc2)c2ccccc2)cc1	-3%	3%	-5%	50µM*	4%	-66%
CCOc1ccc(OCc2ccc(C(=O)N3CCCC(C)C3)cc2)cc1 (stereo not drawn)	.	?	-1%	-25%	6%	-20%
CCOc1ccc(OCc2ccc(C(=O)N3CCOCC3)cc2)cc1	?	3.5µM*	-1%	-38%[59 µM]	11%	-30%
Cc1cc(Sc2nc(N)ncc2[N+](=O)[O-])ncn1	?	?	-9%	32µM*	22µM*	10%
Cc1ccc(C)c(Oc2ncnc(N)c2[N+](=O)[O-])c1	?	9%	-2%	10%	-4%	-9%
Cc1cc(Sc2ncnc(N)c2[N+](=O)[O-])ncn1	?	-11%	-6%	-3%[12.7 µM]	50µM*	?
CCCS(=O)(=O)N1CCCC(C(=O)NCCOC)C1 (stereo not drawn)	-10%[46 µM]	.	.	-25%[59 µM]	.	2%
COc1ccc(C(=O)c2c(N)c(C(=O)Nc3cccc(OC)c3)c3ccccn23)cc1	.	.	.	28µM*	.	-7%
CC(CN1CCN(C)CC1)OC(=O)c1cccc(F)c1 (stereo not drawn)	.	.	.	-10%[0.501 µM]	-8%	-1%
Oc1ccc(N=Nc2cccc(C(F)(F)F)c2)cc1C=Nc1ccc(N2CCOCC2)cc1	-5%	?	-29%	?	1%	-8%
Clc1cccc(-c2ccc(C=Nc3ccc(N4CCOCC4)cc3)o2)c1Cl	-11%[46 µM]	10µM*	?	14µM*	?	-5%
Clc1ccc(-c2ccc(C=Nc3ccc(N4CCOCC4)cc3)o2)cc1	-6%	3.5µM*	?	-48%[59 µM]	18%	-14%
Oc1c(Cl)cc(Cl)cc1C=Nc1ccc(N2CCOCC2)cc1	.	.	.	?	5%	-5%
Cc1c(N=Cc2ccc(-c3ccc(Cl)cc3)o2)c(=O)n(-c2ccccc2)n1C	18%	?	3%	3%[59 µM]	-2%	-4%
Clc1ccc(-c2ccc(C=Nc3ccc(N4CCOCC4)cc3)o2)c(Cl)c1	-2%[9.22 µM]	-4%	-27%	35µM*	-8%	-3%
O=C(O)c1[nH]c2ccccc2c1C=NCc1ccccc1Cl	?	5%	?	56µM*	15%	-2%

Part of the list above in order of molar mass, lowest first.
compound	Lamin A splicing	ALDH1A1 block	JMJD2E inh	G9a inh	Sfp inh	miR-21 reporter
CCCS(=O)(=O)N1CCCC(C(=O)NCCOC)C1 (stereo not drawn)	-10%[46 µM]	.	.	-25%[59 µM]	.	2%
O=C(O)c1[nH]c2ccccc2c1C=NCc1ccccc1Cl	?	5%	?	56µM*	15%	-2%
Cc1c(N=Cc2ccc(-c3ccc(Cl)cc3)o2)c(=O)n(-c2ccccc2)n1C	18%	?	3%	3%[59 µM]	-2%	-4%
Clc1cccc(-c2ccc(C=Nc3ccc(N4CCOCC4)cc3)o2)c1Cl	-11%[46 µM]	10µM*	?	14µM*	?	-5%
COc1ccc(C(=O)c2c(N)c(C(=O)Nc3cccc(OC)c3)c3ccccn23)cc1	.	.	.	28µM*	.	-7%

Further records follow:
compound	Lamin A splicing	ALDH1A1 block	JMJD2E inh	G9a inh	Sfp inh	miR-21 reporter
O=C(O)c1[nH]c2ccccc2c1C(c1c(F)cccc1Cl)c1c(C(=O)O)[nH]c2ccccc12	.	.	.	?	12%	-6%
CC1(OC(=O)CCc2ccccc2)C(=O)C=C2C=C3CCCN3C=C2C1=O (stereo not drawn)	12%[9.22 µM]	3%[13.5 µM]	18µM*	-39%[59 µM]	?	8%
CC1(OC(=O)C2CCCC2)C(=O)C=C2C=C3CCCN3C=C2C1=O (stereo not drawn)	-6%[9.22 µM]	10%[13.5 µM]	-15%[11.4 µM]	.	0%	.
CC1(OC(=O)c2cccs2)C(=O)C=C2C=C3CCCN3C=C2C1=O (stereo not drawn)	-14%[9.22 µM]	2%[13.5 µM]	5.6µM*	-37%[59 µM]	-4%	6%
CCOC(=O)c1nn(-c2ccc(OCC)cc2)c2nc(CC(C)C)c(C#N)c(=O)n12	-3%	?	?	-26%[59 µM]	50µM*	-7%
Cc1cccc(CNc2ncncc2-c2ccccc2C(F)(F)F)c1	?	?	-3%	.	-29%	.
CC1CCC2(CC1)NC(=O)N(CC(=O)Nc1nc(-c3ccc(F)cc3)cs1)C2=O (stereo not drawn)	-15%	?	3%	50µM*	8%	-5%
COc1ccc(-c2csc(NC(=O)CN3C(=O)NC4(CCCC4)C3=O)n2)cc1	.	.	.	-28%	.	.
Cc1ccc(-c2c[n+](CC(=O)Nc3nc(-c4ccc(F)cc4)cs3)c3n2CCC3)cc1	?	5%	?	45µM*	?	-2%
O=C(C[n+]1cc(-c2ccc(F)cc2)n2c1CCC2)Nc1nc(-c2ccccc2)cs1	3%	1%	-14%	-11%[59 µM]	-14%	-25%
CC(=O)Oc1c(C)c2c3c(c1OC(C)=O)[C@@H](C)CC[C@@H]3[C@@H](C)C[C@H]2C=C(C)C	.	.	.	3%[0.501 µM]	.	.
O=C(O)c1cc(-c2ccc(-c3c(-c4ccc5c(c4)OCO5)noc3-c3ccsc3)cc2)nc2ccccc12	.	.	.	56µM*	-7%	-53%

Screening data (PubChem BioAssay)
